We go through two compounds from ChEMBL document CHEMBL3576802, “Discovery of a β-Hairpin Octapeptide, c[Pro-Arg-Phe-Phe-Dap-Ala-Phe-DPro], Mimetic of Agouti-Related Protein(87-132) [AGRP(87-132)] with Equipotent Mouse Melanocortin-4 Receptor (mMC4R) Antagonist Pharmacology” (J Med Chem, 2015).

The chains behind the UniProt entries cited, without tags or fusion partners. Where a name states a change or a piece, a line headed by the entry shows the natural chain unless it says otherwise.
UniProt P33033: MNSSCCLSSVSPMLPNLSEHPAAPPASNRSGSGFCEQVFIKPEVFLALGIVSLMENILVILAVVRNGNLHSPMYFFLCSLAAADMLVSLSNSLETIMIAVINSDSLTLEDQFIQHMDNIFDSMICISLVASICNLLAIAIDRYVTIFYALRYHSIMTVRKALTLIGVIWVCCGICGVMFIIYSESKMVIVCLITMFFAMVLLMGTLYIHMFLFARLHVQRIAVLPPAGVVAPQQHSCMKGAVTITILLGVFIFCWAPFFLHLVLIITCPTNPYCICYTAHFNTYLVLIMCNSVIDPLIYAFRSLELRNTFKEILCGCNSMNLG

In this test the target is Melanocortin receptor 3 (Mus musculus, UniProt P33033). The test can be described thus: Displacement of MTII from mouse MC3R expressed in HEK293 cells. The format is cell-based. Conditions: for Kb: read-out: pA2 (converted).

As for `C[C@@H]1NC(=O)[C@H](CC(N)=O)NC(=O)[C@H](Cc2ccccc2)NC(=O)[C@H](Cc2ccccc2)NC(=O)[C@H](CCCNC(=N)N)NC(=O)[C@@H]2CCCN2C(=O)[C@H]2CCCN2C(=O)[C@H](Cc2ccccc2)NC1=O`, the affinity, expressed as Ki, was 400 nM and the Kb is 398 nM.

Regarding `C[C@@H]1NC(=O)[C@H](CC(N)=O)NC(=O)[C@H](Cc2ccccc2)NC(=O)C(Cc2cccc3ccccc23)NC(=O)[C@H](CCCNC(=N)N)NC(=O)[C@@H]2CCCN2C(=O)[C@H]2CCCN2C(=O)[C@H](Cc2ccccc2)NC1=O` (stereo partly drawn), the Kb is 794 nM.
